Results published in patent US8722850B2, “Self-assembling peptides and their use in the formation of hydrogels” (Universita' Degli Studi di Milano Bicocca, priority 2010, dated 2014).

experiment: Macro-scale scaffold formation upon exposure to PBS / neutral pH buffer; format: physicochemical; details: upon exposure to PBS (1×) / neutral pH buffer
Excerpt: The tested peptides solutions appearance ranged from peptides giving clear liquid is solutions (e.g. 4, B15, B19, B25, B28, 30) to samples which become opaque in 1 to 7 days after dissolution (e.g. B3, B17, B22, B24, B27, 31) as shown in FIG. 2a (I). Most of the liquid solutions increased in viscosity over the first week after dissolution, however after ten days in water no appreciable changes happened at the macroscale.
Nonetheless, keeping constant the observation time, the storage moduli of peptide solutions previously dissolved (the day before) at 3% w/v were measured. Measurements were obtained of these peptide solutions, further diluted to 1% w/v at the same day of the experiment (unless otherwise specified), and, after addition of PBS, of the formed scaffolds.

| Substance | solid scaffold / hydrogel formation |
| --- | --- |
| Biotin-GGG-PYSSTKT-CONH2 [B39] | yielded solid scaffolds |
| Biotin-GGG-PFSATKT-CONH2 [B46] | yielded solid scaffolds |
| Biotin-GGG-PFSSAKT-CONH2 [B45] | yielded solid scaffolds |
| Biotin-GGG-AFASTKT-GIKVAV-CONH2 [B54] | yielded solid scaffolds |
| Biotin-GGG-PFSSTAT-CONH2 [B43] | yielded solid scaffolds |
| Biotin-GGG-AFASTKT-GRGD-CONH2 [B52] | yielded solid scaffolds |
| Biotin-GGG-AFAAAKA-CONH2 [B44] | yielded solid scaffolds |
| Biotin-GGG-PFCSTKT-CONH2 [B48] | yielded solid scaffolds |
| Biotin-GGG-AASSTKT-CONH2 [B40] | yielded solid scaffolds |
| Biotin-GGG-AFAK-CONH2 [B57] | yielded solid scaffolds |
| Biotin-GGG-AFASAKA-CONH2 [B42] | yielded solid scaffolds |
| Biotin-GGG-PFSCTKT-CONH2 [B47] | yielded solid scaffolds |
| Biotin-GGG-AFAATKT--CONH2 [B41] | yielded solid scaffolds |
| Biotin-GGG-PFSSTKT-GIKVAV-CONH2 [B53] | yielded solid scaffolds |
| (Biotin-GGG)2-K-FSSTKT-CONH2 [B58] | yielded solid scaffolds |
